Series [1] concerns the target T1, zebrafish PXR (Danio rerio, UniProt A5WYG8).
T1 sequence (A5WYG8 144-430): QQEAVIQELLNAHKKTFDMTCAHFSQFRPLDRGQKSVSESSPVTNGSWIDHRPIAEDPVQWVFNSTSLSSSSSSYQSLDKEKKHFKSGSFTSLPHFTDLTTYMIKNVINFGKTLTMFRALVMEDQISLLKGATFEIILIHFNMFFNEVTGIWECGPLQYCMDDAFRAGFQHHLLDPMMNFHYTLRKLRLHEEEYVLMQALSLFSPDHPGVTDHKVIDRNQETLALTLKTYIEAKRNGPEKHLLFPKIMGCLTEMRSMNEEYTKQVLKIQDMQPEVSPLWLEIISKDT

In series [2] the target is T1, zebrafish PXR. Briefly: cell-based.
In a further series the target is T2, human PXR (Homo sapiens, UniProt O75469).
T2 sequence (O75469 1-434): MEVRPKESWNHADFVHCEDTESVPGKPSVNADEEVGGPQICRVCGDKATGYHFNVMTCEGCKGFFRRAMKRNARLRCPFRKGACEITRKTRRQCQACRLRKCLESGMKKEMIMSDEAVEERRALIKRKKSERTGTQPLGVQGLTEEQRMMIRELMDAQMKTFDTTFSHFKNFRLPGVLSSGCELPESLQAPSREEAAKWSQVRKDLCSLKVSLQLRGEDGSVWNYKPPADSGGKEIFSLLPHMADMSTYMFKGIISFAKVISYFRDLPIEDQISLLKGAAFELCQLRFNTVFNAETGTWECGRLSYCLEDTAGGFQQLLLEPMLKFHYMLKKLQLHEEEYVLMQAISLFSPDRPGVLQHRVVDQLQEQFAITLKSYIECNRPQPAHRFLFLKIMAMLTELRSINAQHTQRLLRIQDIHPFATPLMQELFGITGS

Read-outs that look alike come from different tables or passages of the source. Where only a bound is given, the exact number is not on record here.

As usually defined, the EC50 is the concentration that produces a half-maximal response. In the case of `C[C@]12CCC(=O)C[C@@H]1CC[C@@H]1[C@@H]2CC[C@]2(C)C(=O)CC[C@@H]12` [AN2, 5α-Androstan-3,17-dione], the “zfPXR Efficacy” value on zebrafish PXR [1] (zebrafish) stood at 0.86. Also, the EC50 on zebrafish PXR [2] (zfPXR Activity) is 3.16 µM.

`C[C@]12CC[C@H]3[C@@H](CCC4=CC(=O)CC[C@@]43C)[C@@H]1CC[C@@H]2O` [AN8, 4-Androsten-17β-ol-3-one]: the “zfPXR Efficacy” value on zebrafish PXR [1] (zebrafish) came to 0.12. Moreover, the EC50 on zebrafish PXR [2] (Zebrafish PXR EC50 (concentration class, Figure 2B)) is less than 10 µM; at zebrafish PXR [2] (zfPXR Activity) it was 2.45 µM.

In the case of `C[C@]12CC[C@H]3[C@@H](CCC4=CC(=O)CC[C@@]43C)[C@@H]1CC[C@H]2O` [AN15, 4-Androsten-17α-ol-3-one], the “zfPXR Activity” value at zebrafish PXR [1] was “None”.

On to `C[C@H](CCC(=O)O)[C@H]1CC[C@H]2[C@@H]3CC[C@@H]4C[C@H](OS(=O)(=O)O)CC[C@]4(C)[C@H]3CC[C@]12C` [BI41, 5β-Cholanic acid-3α-sulfate], for which the “hPXR Efficacy” value on human PXR amounted to 0.69. Besides, the “zfPXR Efficacy” value on zebrafish PXR [1] was found to be 0.24.

As for `CC(=O)O[C@@H]1CC[C@@]2(C)[C@H](CC[C@@H]3[C@@H]2CC[C@]2(C)[C@@H]([C@H](C)CCC(=O)O)CC[C@@H]32)C1` [BI49, 5β-Cholanic acid-3α-acetate], the “zfPXR Efficacy” value at zebrafish PXR [1] worked out at 0.10.

As for `COC(=O)CC[C@@H](C)[C@H]1CC[C@H]2[C@@H]3CC[C@@H]4C[C@H](OC(C)=O)CC[C@]4(C)[C@H]3CC[C@]12C` [BI50, 5β-Cholanic acid-3α-acetate methyl ester], the “hPXR Efficacy” value at human PXR came out at 0.49.

Regarding `CCOP(=S)(OCC)Oc1nc(Cl)c(Cl)cc1Cl` [MI10, Chlorpyrifos], the “zfPXR Efficacy” value at zebrafish PXR [1] (zebrafish) worked out at 0.88. On zebrafish PXR [2] (zfPXR Activity), the concentration for a half-maximal effect (EC50) is 3.63 µM.

Consider `CC(=O)[C@H]1CC[C@H]2[C@@H]3CC[C@H]4C[C@H](O)CC[C@]4(C)[C@H]3CC[C@]12C` [PR14, 5α-Pregnan-3α-ol-20-one], for which the “zfPXR Efficacy” value at zebrafish PXR [1] (zebrafish) worked out at 0.30. For the same compound, the midpoint of the response on zebrafish PXR [2] (zfPXR Activity), the EC50, lay at 3.98 µM.

Regarding `CC(=O)[C@H]1CC[C@H]2[C@@H]3CC[C@@H]4C[C@H](O)CC[C@]4(C)[C@H]3CC[C@]12C` [PR25, 5β-Pregnan-3α-ol-20-one], the “zfPXR Efficacy” value on zebrafish PXR [1] turned out to be 1.22.
